# Laboratory results: ChEMBL document CHEMBL5500420, “Discovery of BI-9508, a Brain-Penetrant GPR88-Receptor-Agonist Tool Compound for In Vivo Mouse Studies” (J Med Chem, 2024)
# Test: Metabolic stability in mouse liver microsomes assessed as hepatic blood flow at 1 uM in presence of NADPH by LC-MS/MS analysis
row,SMILES,QH
1,CC(C)Oc1ccc(-c2ccc(N(CCOC(F)F)C(=O)[C@@H]3C[C@H]3c3ccncn3)c3ncnn23)cc1,0.77
2,CC(C)Oc1ccc(-c2ccc(N(CCOC(F)F)C(=O)[C@@H]3C[C@H]3c3ccncn3)c3oncc23)cc1,0.27
3,COc1cc(-c2ccc(O[C@@H](C)C(F)(F)F)nc2)ccc1N(CCOC(F)F)C(=O)[C@@H]1C[C@H]1c1ccncn1,0.4
